Consider six molecules from ChEMBL document CHEMBL1130128, “Antipsoriatic anthrones with modulated redox properties. 4. Synthesis and biological activity of novel 9,10-dihydro-1,8-dihydroxy-9-oxo-2-anthracenecarboxylic and -hydroxamic acids” (J Med Chem, 1997).

In general, IC50 refers to the midpoint of a concentration-inhibition curve. High values mean a need for much substance, low ones inhibition by little substance.

This assay deals with T1, Arachidonate 5-lipoxygenase (Bos taurus, UniProt Q9BEG3).
T1 sequence (Q9BEG3 whole entry): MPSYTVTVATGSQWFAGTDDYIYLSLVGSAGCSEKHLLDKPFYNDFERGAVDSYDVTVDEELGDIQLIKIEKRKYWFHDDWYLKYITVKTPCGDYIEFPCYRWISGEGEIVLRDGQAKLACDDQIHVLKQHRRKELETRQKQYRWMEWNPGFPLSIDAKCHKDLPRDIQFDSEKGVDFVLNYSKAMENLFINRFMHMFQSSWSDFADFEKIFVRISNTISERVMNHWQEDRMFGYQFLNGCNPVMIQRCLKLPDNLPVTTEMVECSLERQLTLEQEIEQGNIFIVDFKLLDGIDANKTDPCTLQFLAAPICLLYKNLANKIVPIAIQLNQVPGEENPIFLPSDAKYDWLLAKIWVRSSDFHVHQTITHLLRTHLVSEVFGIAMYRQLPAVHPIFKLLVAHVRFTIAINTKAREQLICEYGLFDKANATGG
Nature of the assay: 5-LO inhibitory activity, measured by production of 5-hydroxyeicosatetraenoic acid (5-HETE) and leukotriene B4 (LTB4) in bovine polymorphonuclear leukocytes. It is filed as functional, cell-based.
`CC(C(=O)NO)c1ccc2c(c1O)C(=O)c1c(O)cccc1C2` (stereo unspecified) yielded a concentration for half-maximal inhibition (IC50) of 6000 nM.

Molecule `CN(O)C(=O)c1ccc(Cc2ccc3c(c2O)C(=O)c2c(O)cccc2C3)cc1` displayed an IC50 of 700 nM. This IC50 is about 8.6-fold lower than that of the molecule before. `O=C1c2c(O)cccc2Cc2ccc(C(Cc3ccccc3)C(=O)O)c(O)c21` (stereo unspecified) returned a half-inhibitory concentration (IC50) of 1000 nM. This IC50 and that of the molecule before are within 1.5-fold of each other.

On to `CN(O)C(=O)CCc1ccc2c(c1O)C(=O)c1c(O)cccc1C2`, for which the midpoint of inhibition, the IC50, lay at 600 nM.

For the molecule `CN(O)C(=O)CCCCc1ccc2c(c1O)C(=O)c1c(O)cccc1C2`, the concentration for half-maximal inhibition (IC50) was 500 nM. The figure for `CC(C)C(C(=O)O)c1ccc2c(c1O)C(=O)c1c(O)cccc1C2` (stereo unspecified) is 2000 nM.
